Results from PubChem BioAssay AID463213 (Sanford-Burnham Center for Chemical Genomics, 2010).
The entries are a selection whose mix differs from that of the whole data set. Activity calls are given as the source filed them.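 The calls were made as follows: active = inhibition of yeast growth at or above a set limit in either of two repeat tests at 20 µM; inactive = the rest.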

Test: tim10-1 ts yeast growth inhibition, retested – single concentration, luminescence, S. cerevisiae, confirmation (AID 463213);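 also: tim10-1 mutant grown at permissive 25 °C to find synthetic lethal compounds; 0% = DMSO yeast wells and 100% = medium wells without yeast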
Conditions: S. cerevisiae tim10-1 ts strain growth, BacTiter-Glo, 24 h; at 20 µM; active compounds read high

| Compound | inhibition |
| --- | --- |
| CC(=O)NC(SC(=S)N(CC(C)C)CC(C)C)C(Cl)(Cl)Cl (configuration not stated) | active: 35.3% |
| O=[N+]([O-])c1cc([N+](=O)[O-])c(CCNc2ccccc2)c([N+](=O)[O-])c1 | active: 70.8% |
| Cc1c2non([O-])c-2c(C)[n+](=O)[n+]1[O-] | active: 44.8% |
| Cc1ccc2nc3c(c(C)c2c1)CC(C(Cl)Cl)S3 (configuration not stated) | inactive: 21% |
| O=[N+]([O-])c1cc([N+](=O)[O-])c(-c2ccn[nH]2)s1 | active: 82.4% |
| Cc1ccc(NCCc2c([N+](=O)[O-])cc([N+](=O)[O-])cc2[N+](=O)[O-])cc1 | active: 66.4% |
| CN(C)C(=O)c1cc([N+](=O)[O-])cc2c1-c1c(cc([N+](=O)[O-])cc1[N+](=O)[O-])C2=O | active: 73.2% |
